The target of the test is H3 receptor (Rattus norvegicus, UniProt Q9QYN8). The test is described as follows: H3 receptor binding, (3H)-N-α-methylhistamine displacement in rat cortical membranes. As to conditions: male Sprague-Dawley rat brain cortical membranes, 30 minutes at 25° C., Cheng-Prusoff, geometric mean values of 2-10 separate experiments. The method, then:
Briefly, male Sprague-Dawley rat brain cortices were homogenized (1 g tissue/10 mL buffer) in 50 mM Tris-HCl/5 mM EDTA containing protease inhibitor cocktail (Calbiochem) using a polytron set at 20,500 rpm. Homogenates were centrifuged for 20 minutes at 40,000×g. The supernatant was decanted, and pellets were weighed. The pellet was resuspended by polytron homogenization in 40 mL 50 mM Tris-HCl/5 mM EDTA with protease inhibitors and centrifuged for 20 minutes at 40,000×g. […] Test compounds were added to the incubation mixtures prior to initiating the incubation assay by addition of the membranes. Thioperamide (3 μM) was used to determine nonspecific binding. Binding incubations were conducted for 30 minutes at 25° C. and terminated by addition of 2 mL of ice cold 50 mM Tris-HCl (H 7.7) and filtration through 0.3% polyethylenimine-soaked Unifilter plates (Packard). These filters were washed 4 additional times with 2 mL of ice-cold 50 mM Tris-HCl and dried for 1 hour. Radioactivity was determined using liquid scintillation counting techniques. Results were analyzed by Hill transformation and Ki values were determined using the Cheng-Prusoff equation.

Chains of the proteins cited; added tags and fusions are not shown. Residues count along the entry.
UniProt Q9QYN8, 1-397 isoform Q9QYN8-3: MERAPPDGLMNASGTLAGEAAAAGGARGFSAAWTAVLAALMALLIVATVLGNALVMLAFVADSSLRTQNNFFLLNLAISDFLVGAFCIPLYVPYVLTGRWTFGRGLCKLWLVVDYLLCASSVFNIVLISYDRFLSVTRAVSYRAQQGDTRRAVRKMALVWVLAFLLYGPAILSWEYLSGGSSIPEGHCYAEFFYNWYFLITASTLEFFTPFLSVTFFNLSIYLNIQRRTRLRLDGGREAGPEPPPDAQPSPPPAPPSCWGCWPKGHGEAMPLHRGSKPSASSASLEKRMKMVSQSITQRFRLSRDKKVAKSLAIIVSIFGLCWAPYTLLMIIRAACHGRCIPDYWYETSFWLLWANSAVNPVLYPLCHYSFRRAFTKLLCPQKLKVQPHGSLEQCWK

pKi: −log10 of the molar value.

In the case of “N-{(1R)-2-[4-(3-{4-[5-(cyclopentylmethyl)-1,2,4-oxadiazol-3-yl]-3-fluorophenoxy}propyl)-1,4-diazepan-1-yl]-1-methyl-2-oxoethyl}-2-furamide [Example 145]”, the pKi is 8.86.

Values taken from patent US6559140B2 (Abbott Laboratories, priority 2000, dated 2003).
